System: NMDA-induced currents in pyramidal cells of the medial prefrontal cortex
Experiment: Facilitation of NMDA-induced currents in pyramidal cells of the medial prefrontal cortex in vitro (brain slices, voltage-clamp)
Assay type: cell-based, rat
Conditions: bath application; holding potential −60 mV; FIG. 3

CN(C)CCC[C@@]1(c2ccc(F)cc2)OCc2cc(C#N)ccc21 [escitalopram, (S)-1-[3-(dimethylamino)propyl]-1-(4-fluorophenyl)-1,3-dihydro-5-isobenzofurancarbonitrile]
effect on NMDA-induced currents in pyramidal cells of the prefrontal cortex: facilitates the NMDA-induced currents to similar extent as the risperidone and reboxetine

Reference: US20070259952A1, “USES OF ESCITALOPRAM” (H. LUNDBECK A/S, priority 2006, published 2007)
